Earlier results as cited in patent publication US5677346A, “Treating urinary incontinence using (S)-desethyloxybutynin” (Sepracor, Inc., priority 1995, dated 1997).

Tested on: muscarinic cholinergic receptors
Details: antimuscarinic side effects; cited from earlier work

SMILES: CCN(CC)CC#CCOC(=O)C(O)(c1ccccc1)C1CCCCC1 (racemic) [RS-OXY, 4-(diethylamino)-2-butynyl α-cyclohexyl-α-hydroxybenzeneacetate, reference compound]
- side effects (in words): xerostomia (dry mouth) and mydriasis (dilated pupils), which involve muscarinic cholinergic receptors, are very common side effects
